The values below are quoted from earlier work in patent publication US11446267B2, “Nanoparticle compositions, methods of fabrication, and use for drug delivery” (DIGNITY HEALTH, priority 2017, dated 2022).

The test system of the data set is ALS patients. The note with it: cited from earlier work.

Each structure is given as a SMILES string.

`Nc1nc2ccc(OC(F)(F)F)cc2s1` [Riluzole]: the extension of survival is given as 2-3 months.
